Reference: PMC3758308, “The Respiratory Arsenite Oxidase: Structure and the Role of Residues Surrounding the Rieske Cluster” (2013)

Sequences of proteins named here, by UniProt entry; tags and fusion partners are left off. A change or cut given only in a name is not applied to a line headed by its entry.
UniProt Q6VAL8: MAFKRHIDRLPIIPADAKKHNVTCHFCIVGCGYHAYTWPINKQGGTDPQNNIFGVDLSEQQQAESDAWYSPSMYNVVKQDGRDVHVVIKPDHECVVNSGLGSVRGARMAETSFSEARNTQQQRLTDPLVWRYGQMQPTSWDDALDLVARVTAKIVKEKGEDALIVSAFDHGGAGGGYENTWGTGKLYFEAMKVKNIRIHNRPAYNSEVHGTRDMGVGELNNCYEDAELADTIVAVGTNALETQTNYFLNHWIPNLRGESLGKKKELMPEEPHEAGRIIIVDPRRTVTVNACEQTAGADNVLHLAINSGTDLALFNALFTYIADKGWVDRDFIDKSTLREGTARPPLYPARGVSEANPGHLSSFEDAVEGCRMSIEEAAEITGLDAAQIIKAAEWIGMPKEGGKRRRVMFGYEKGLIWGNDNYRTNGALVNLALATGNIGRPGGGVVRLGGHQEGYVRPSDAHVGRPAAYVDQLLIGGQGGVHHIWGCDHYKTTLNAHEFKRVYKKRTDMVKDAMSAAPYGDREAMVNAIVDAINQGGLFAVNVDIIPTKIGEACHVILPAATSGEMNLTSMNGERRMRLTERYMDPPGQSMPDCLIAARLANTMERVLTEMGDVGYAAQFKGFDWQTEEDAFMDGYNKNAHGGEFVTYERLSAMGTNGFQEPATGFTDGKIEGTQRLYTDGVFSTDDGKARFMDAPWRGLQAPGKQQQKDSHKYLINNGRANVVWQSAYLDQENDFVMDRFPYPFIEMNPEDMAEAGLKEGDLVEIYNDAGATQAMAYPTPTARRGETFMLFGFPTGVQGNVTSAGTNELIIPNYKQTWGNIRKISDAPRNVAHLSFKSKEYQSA

Molecular target: NT-26 Aio (recombinant arsenite oxidase, AioBA) (Pseudorhizobium banfieldiae, UniProt Q6VAL8)
Assay: DCPIP reduction assay
Conditions: DCPIP as artificial electron acceptor; 50 mM MES pH 5.5; 25°C

O[As](O)O
Km: 68 µM
